{"source": "patent US10196454B2", "about": "“Anti-PMEL17 antibodies and immunoconjugates” (GENENTECH, INC., priority 2012, dated 2019)", "key": {"[1]": {"system": "UACC-257X2.2 tumor", "assay": "Resistance developed in vivo, UACC-257X2.2 xenograft", "design": "species or system mice", "details": "tumor #359, repeated IV doses 3 to 10 mg/kg", "procedure": "For resistance developed in vivo, NCr nude mice (Taconic, Hudson, N.Y.) were inoculated subcutaneously in the dorsal right flank with 5 million UACC-257X2.2 cells in HBSS with Matrigel. UACC-257X2.2 cells are derived from UACC-257 cells (National Cancer Institute) and optimized for growth in vivo as follows. UACC-257 cells were injected subcutaneously in the right flank of female NCr nude mice to induce tumor growth. One tumor was harvested and grown in vitro (referred to as UACC-257X1.2 cell line). The UACC-257X1.2 line was injected again subcutaneously in the right flank of female NCr nude mice to improve the growth of the cell line in vivo. A tumor from the second injection round was collected and again adapted for in vitro growth to generate UACC-257X2.2.\nTen mice inoculated with UACC-257X2.2 cells were dosed with 3 mg/kg hu5E9.v1-MC-vc-PAB-MMAE intravenously on day 0 (the heavy chain and light chain sequences for hu5E9.v1 are shown in SEQ ID NOs: 46 and 45, respectively). To determine when the mice would be dosed again, and at what doses, the following was taken into consideration: whether or not tumors re-grew after the initial treatment (i.e., tumors that grew back to initial tumor volume size at day 0), and the rate of re-growth. […] The range of doses administered were 3 mg/kg, 6 mg/kg, 8 mg/kg, and 10 mg/kg."}, "[2]": {"system": "in vivo derived resistant UACC-257X2.2 cells", "assay": "In vitro cell proliferation (CellTiter-Glo, five days)", "type": "cell-based", "details": "in vivo derived resistant line, immunoconjugates", "procedure": "Tumor #359 was harvested and the cells were dissociated for growth in vitro (referred to herein as in vivo-derived resistant UACC-257X2.2 cells).\n(§1) In vitro cell proliferation of the cell lines in the presence of the immunoconjugates was assessed. Cells were plated at 1,500 cells per well in 50 μL of normal growth medium in 96-well clear-bottom plates. Twenty-four hours later, an additional 50 μL of culture medium with serial dilutions of immunoconjugates were added to triplicate wells. Five days later, cell survival was determined using CellTiter-Glo Luminescent Cell Viability Reagent (G7572, Promega Corporation, Madison, Wis.) using an EnVision 2101 Mutilabel Reader (Perkin-Elmer, Waltham, Mass.)."}, "[3]": {"system": "in vitro derived resistant UACC-257X2.2 cells", "assay": "In vitro cell proliferation (CellTiter-Glo, five days)", "type": "cell-based", "procedure": "For resistance developed in vitro, UACC-257X2.2 cells were adapted to increasing concentrations of anti-ETBR-vc-MMAE in culture dishes over the course of two months.\nas §1"}, "[4]": {"system": "parental UACC-257X2.2 cells", "assay": "In vitro cell proliferation (CellTiter-Glo, five days)", "type": "cell-based", "details": "parental line, immunoconjugates", "procedure": "as §1"}}, "data": [{"molecule": "anti-ETBR-vc-MMAE: anti-endothelin B receptor immunoconjugate comprising a val-cit linker and MMAE drug (conjugate, MC-vc-PAB-MMAE conjugate, anti-endothelin B receptor immunoconjugate comprising a val-cit linker and MMAE drug) heavy: EVQLVESGGGLVQPGGSLRLSCAASGYTFTSYWMQWVRQAPGKGLEWIGTIYPGDGDTSYAQKFKGRATLSTDKSKNTAYLQMNSLRAEDTAVYYCARWGYAYDIDNWGQGTLVTVSSASTKGPSVFPLAPSSKSTSGGTAALGCLVKDYFPEPVTVSWNSGALTSGVHTFPAVLQSSGLYSLSSVVTVPSSSLGTQTYICNVNHKPSNTKVDKKV[human IgG1 Fc omitted here] light: DIQMTQSPSSLSASVGDRVTITCKSSQSLLDSDGKTYLNWLQQKPGKAPKRLIYLVSKLDSGVPSRFSGSGSGTDFTLTISSLQPEDFATYYCWQGTHFPYTFGQGTKVEIKRTVAAPSVFIFPPSDEQLKSGTASVVCLLNNFYPREAKVQWKVDNALQSGNSQESVTEQDSKDSTYSLSSTLTLSKADYEKHKVYACEVTHQGLSSPVTKSFNRGEC", "values": [{"measurement": "time until tumor developed resistance", "setting": "[1]", "value": "about 120 days"}, {"measurement": "EC50", "setting": "[2]", "value": 0.235, "unit": "µg/mL"}, {"measurement": "effect on growth of in vitro-derived resistant cells", "setting": "[3]; concentrations up to at least 10 μg/ml", "value": "relatively unaffected"}, {"measurement": "EC50", "setting": "[3]; in vitro derived resistant line, immunoconjugates", "value": "insensitive"}, {"measurement": "EC50", "setting": "[4]", "value": 0.045, "unit": "µg/mL"}]}]}
